From patent US20050192279A1, “Pyridazinones as antagonists of alpha4 integrins” (priority 2004, published 2005)

Sequences of proteins named here, by UniProt entry; tags and fusion partners are left off. Residues count along the entry.
UniProt P05556, 21-798 limits assumed: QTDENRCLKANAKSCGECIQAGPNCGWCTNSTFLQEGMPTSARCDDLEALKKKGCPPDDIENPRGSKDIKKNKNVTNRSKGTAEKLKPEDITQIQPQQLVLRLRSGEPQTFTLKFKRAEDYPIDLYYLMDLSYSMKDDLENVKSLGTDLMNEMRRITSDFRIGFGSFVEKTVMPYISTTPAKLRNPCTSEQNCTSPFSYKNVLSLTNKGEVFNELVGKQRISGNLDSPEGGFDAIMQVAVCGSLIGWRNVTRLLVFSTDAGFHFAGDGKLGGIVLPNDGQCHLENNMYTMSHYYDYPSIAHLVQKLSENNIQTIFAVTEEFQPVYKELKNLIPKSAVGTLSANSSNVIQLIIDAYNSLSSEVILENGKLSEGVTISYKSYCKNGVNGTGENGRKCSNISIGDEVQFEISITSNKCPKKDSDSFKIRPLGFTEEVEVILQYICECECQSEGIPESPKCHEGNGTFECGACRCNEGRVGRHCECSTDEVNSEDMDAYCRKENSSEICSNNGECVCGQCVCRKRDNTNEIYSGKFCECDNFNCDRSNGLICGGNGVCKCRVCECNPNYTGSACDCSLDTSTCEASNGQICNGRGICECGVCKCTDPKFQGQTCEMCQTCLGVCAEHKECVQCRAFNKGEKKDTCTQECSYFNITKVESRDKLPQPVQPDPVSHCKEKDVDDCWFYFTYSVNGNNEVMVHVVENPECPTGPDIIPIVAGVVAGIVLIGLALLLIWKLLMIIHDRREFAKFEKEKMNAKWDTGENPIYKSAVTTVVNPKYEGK
UniProt P13612, 34-1032 limits assumed: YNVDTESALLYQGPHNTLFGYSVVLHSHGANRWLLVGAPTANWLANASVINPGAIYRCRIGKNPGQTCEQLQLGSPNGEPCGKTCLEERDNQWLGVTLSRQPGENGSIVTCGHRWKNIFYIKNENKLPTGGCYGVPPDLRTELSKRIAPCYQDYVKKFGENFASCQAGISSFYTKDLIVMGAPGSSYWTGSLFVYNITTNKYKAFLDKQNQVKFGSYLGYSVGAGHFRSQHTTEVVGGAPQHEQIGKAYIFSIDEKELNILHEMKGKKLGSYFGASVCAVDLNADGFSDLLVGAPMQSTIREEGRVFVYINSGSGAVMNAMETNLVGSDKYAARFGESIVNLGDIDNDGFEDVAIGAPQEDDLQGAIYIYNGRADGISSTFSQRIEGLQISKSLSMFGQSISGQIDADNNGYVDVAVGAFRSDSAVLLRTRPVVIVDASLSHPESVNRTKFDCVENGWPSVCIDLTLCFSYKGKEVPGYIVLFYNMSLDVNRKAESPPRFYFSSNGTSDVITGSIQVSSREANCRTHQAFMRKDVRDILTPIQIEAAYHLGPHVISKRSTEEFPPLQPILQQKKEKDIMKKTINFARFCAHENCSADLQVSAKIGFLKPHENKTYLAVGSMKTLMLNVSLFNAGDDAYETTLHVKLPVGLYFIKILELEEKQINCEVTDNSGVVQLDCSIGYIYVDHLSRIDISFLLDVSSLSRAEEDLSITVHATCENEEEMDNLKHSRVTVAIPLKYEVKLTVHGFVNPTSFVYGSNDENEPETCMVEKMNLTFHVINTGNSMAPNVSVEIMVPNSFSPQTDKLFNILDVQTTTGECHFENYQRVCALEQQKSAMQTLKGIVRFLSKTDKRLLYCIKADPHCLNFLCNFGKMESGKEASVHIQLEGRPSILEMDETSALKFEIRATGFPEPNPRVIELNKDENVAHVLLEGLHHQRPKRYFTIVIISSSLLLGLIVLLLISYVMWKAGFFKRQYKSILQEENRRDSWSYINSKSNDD
UniProt P26010, 20-798 limits assumed: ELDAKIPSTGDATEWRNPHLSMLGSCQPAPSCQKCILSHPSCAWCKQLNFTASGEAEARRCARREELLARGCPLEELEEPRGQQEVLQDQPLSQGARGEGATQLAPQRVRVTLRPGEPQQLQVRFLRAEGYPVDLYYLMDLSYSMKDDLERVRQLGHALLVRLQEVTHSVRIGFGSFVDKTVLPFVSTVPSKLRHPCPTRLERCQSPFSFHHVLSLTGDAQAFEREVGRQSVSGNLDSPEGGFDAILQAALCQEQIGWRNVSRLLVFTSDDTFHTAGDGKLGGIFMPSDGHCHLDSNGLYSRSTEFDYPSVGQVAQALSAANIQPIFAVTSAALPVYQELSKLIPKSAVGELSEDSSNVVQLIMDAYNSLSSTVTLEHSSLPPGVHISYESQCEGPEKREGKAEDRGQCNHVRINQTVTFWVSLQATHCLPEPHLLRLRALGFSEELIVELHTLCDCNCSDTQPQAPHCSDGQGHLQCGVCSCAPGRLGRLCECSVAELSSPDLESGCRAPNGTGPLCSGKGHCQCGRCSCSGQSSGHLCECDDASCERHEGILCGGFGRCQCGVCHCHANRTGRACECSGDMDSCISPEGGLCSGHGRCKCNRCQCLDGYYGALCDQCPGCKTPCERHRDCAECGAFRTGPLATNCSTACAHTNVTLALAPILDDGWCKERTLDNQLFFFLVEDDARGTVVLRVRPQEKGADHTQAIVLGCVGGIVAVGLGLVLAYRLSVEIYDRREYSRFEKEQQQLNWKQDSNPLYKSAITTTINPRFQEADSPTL

Experiments:
α4β1 = α4β1 (Homo sapiens, UniProt P05556+P13612); test: Ramos Cell Adhesion Assay (α4β1 Mediated Adhesion/VCAM-1); conditions: read-out: α4β1 IC50; Ramos cell adhesion to hVCAM-1
human α4β7 integrin = human α4β7 integrin (Homo sapiens, UniProt P13612+P26010); test: α4β7-K562 Cell Adhesion Assay (α4β7 Mediated Adhesion/MAdCAM-1); conditions: read-out: α4β7 IC50; α4β7-K562 cell adhesion to hMAdCAM-1
[1] = system: alpha 4 beta 7-positive cells; test: Intraperitoneal Delayed Type Hypersensitivity (IP-DTH) Response; format: in vivo, mice; conditions: 30 mg/kg sc bid × 2; peritoneal cells 48 h after antigen challenge

Structure (SMILES) | IC50 (α4β1) [nM] | IC50 (human α4β7 integrin) [nM] | % Decrease in recruited α4β7 + cells [1] [%]
COc1cnn(C)c(=O)c1-c1ccc(C[C@H](NC(=O)C2CCCN2C(=O)OCc2ccccc2)C(=O)O)cc1 (stereo partly shown) | 471 | 400 | 
COc1cnn(C)c(=O)c1-c1ccc(C[C@H](NC(=O)[C@@H]2C3CCC(CC3)N2C(=O)CCC(C)O)C(=O)O)cc1 (stereo partly shown) | 604 | 585 | 
O=C(N[C@@H](Cc1ccc(-c2c(OCCO)cnn(CCO)c2=O)cc1)C(=O)O)c1c(Cl)cccc1Cl | 291 | 5 | 0
